The results in this text go back to patent US12157755B2, “CD73 inhibitor, preparation method therefor and application thereof” (Abbisko Therapeutics Co., Ltd., priority 2019, dated 2024).

The chains behind the UniProt entries cited, without tags or fusion partners. Residues count along the entry.
UniProt P21589, 27-547 limits assumed: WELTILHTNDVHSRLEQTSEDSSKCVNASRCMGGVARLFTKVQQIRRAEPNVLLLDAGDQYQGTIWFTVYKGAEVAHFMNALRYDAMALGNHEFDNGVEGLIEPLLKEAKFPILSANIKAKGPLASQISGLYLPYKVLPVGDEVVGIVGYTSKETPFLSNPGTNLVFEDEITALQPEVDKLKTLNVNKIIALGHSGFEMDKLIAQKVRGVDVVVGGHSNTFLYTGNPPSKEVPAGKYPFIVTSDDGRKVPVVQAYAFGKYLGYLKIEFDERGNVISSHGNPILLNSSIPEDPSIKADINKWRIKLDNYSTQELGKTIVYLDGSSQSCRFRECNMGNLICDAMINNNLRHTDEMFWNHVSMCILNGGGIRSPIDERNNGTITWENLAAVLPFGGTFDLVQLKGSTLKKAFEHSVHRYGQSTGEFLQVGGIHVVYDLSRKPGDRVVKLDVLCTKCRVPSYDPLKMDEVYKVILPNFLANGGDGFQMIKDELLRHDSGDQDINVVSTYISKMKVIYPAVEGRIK
UniProt P21589, 27-549 limits assumed: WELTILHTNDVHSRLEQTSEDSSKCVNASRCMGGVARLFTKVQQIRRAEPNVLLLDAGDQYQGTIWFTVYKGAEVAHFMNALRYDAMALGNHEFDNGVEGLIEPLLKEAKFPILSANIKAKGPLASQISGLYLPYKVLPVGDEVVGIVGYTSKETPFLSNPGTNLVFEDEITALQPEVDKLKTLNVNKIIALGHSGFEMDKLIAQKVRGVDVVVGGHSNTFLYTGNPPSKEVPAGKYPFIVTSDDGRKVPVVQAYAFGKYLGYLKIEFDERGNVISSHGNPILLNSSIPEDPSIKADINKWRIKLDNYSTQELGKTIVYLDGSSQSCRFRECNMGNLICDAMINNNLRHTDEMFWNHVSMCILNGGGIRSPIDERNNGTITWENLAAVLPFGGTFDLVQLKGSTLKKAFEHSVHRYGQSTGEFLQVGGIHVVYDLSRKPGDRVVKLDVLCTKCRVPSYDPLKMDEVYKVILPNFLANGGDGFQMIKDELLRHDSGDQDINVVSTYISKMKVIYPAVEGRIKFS

In one assay the target is CD73 (Homo sapiens, UniProt P21589). Put plainly: In vitro enzymatic activity against CD73 (malachite green test using soluble CD73). The settings on record: read-out: Enzymatic activity IC50, soluble CD73 36 ng/mL, 50 μM AMP, 30 minutes at 25° C. The method, then:
The malachite green test using soluble CD73, which is synthesized in vitro was used in the present invention to determine the characteristics of inhibitory activity of the compounds against CD73. The specific experimental procedures were as following:
1. The enzyme reaction in this experiment was carried out in 384-well plates, and CD73 (R&D systems #5795-EN-010) at a concentration of 36 ng/mL, the compounds at different concentrations and 50 μM AMP were incubated for 30 minutes at 25° C. in a 40 uL reaction system (consisting of 25 mM Tris pH 7.5, 5 mM MgCl2, and 0.005% Tween-20);
2. Then, 10 μL of malachite green solution (Sigma) was added to each well to terminate the reaction;
3. The concentration of resulting inorganic phosphate was determined according to the instructions of the reagent manufacturer;
4. The enzymatic activity of CD73 was calculated based on the concentration of the product, and then IC50 values were determined by non-linear regression analysis of the inhibition percentage of the compounds of the present invention at different concentrations.

The target in assay [1] is CD73 enzymatic activity expressed on the cell surface of MDA-MB-231 cells (Homo sapiens, UniProt P21589). Put plainly: Inhibition of CD73 enzymatic activity on the cell surface (Cell Titer Glo (CTG) experiment), MDA-MB-231 cells. The settings on record: read-out: Cellular activity IC50; MDA-MB-231 cells endogenously expressing CD73, AMP, 37° C. for 2 hours, CTG readout. On the procedure: Human breast cancer cells MDA-MB-231 that endogenously express CD73 were used in the present invention to evaluate the inhibition of the compound against the CD73 enzymatic activity expressed on the cell surface. The cells used were from the Cell Bank of the Chinese Academy of Sciences. The specific experimental procedures were as follows:
1. Before the test, MDA-MB231 cells were seeded to a 96-well plate at 20000 cells/well;
2. In RPMI1640, 10% fetal bovine serum (Gibco, 10099-141), placed in a 5% CO2 incubator at 37° C. overnight (the cells were washed three times by using a serum-free RPMI medium right before the test):
3. […]
4. 25 μL of 1.2 mM AMP was added for incubation at 37° C. for 2 hours, 25 μL of supernatant was then collected from the cells and mix with 25 μL of 100 μM ATP, and then the concentration of AMP in the samples was determined by CTG (Promega, #G7573);
5. Then, a reduction ratio of the substrate AMP level in the cell culture supernatant collected after the reaction was quantitatively determined to evaluate the inhibitory effects of the examples of the present invention and the positive compounds against the CD73 enzymatic activity on the cell surface;
6. Finally, the concentration of the compound leading to half maximal inhibition of enzymatic activity (IC50) was determined using a four-parameter non-linear logistic model curve fit in Graphpad Prism.

The structures appear in SMILES notation.

As to `C[C@H](Nc1nc(Cl)nc2c1ccn2[C@@H]1O[C@H](COP(=O)(O)CP(=O)(O)O)[C@@H](O)[C@H]1O)c1ccccc1F`, the IC50 is 3.37 nM on CD73 and 0.508 nM in assay [1].
